Values of other authors in article PMC7559231, “Drug-induced cholestasis assay in primary hepatocytes” (MethodsX, 2020).
Where two headings read alike, the source gives them in different places.

What was measured:
[1] = test system: sandwich-cultured human hepatocytes; settings: cited from earlier work
[2] = set-up: method as in per compound in column References of Table 3 ([3], [24]-[44]); settings: mean total peak plasma concentration in humans; ref per compound in Table 3 ([3], [24]-[44]); cited from earlier work
[3] = 300 µM test compound, 48 h exposure, SCHH, ref [6],[7]

Row | Compound | DICI 24 h Mean ([1]; 300 µM test compound, 24 h exposure, SCHH, ref [6],[7]) | DICI 48 h Mean [1, 3] | DICI 48 h Mean ([1]; 500 µM test compound, 48 h exposure, SCHH, ref [6],[7]) | DICI 24 h Mean [1] | DICI 48 h Mean [1] | DICI 48 h Mean ([1]; 100 µM test compound, 48 h exposure, SCHH, ref [6],[7]) | DICI 24 h Mean ([1]; 50 µM test compound, 24 h exposure, SCHH, ref [6],[7]) | DICI 24 h Mean ([1]; 100 µM test compound, 24 h exposure, SCHH, ref [6],[7]) | Cmax,total [2] [nM]
1 | O=C(O)Cc1ccccc1Nc1c(Cl)cccc1Cl [Diclofenac, diclofenac] | 1.34 | 1.04 | 1.00 | 1.16 | 1.19 | – | – | – | –
2 | CCc1ccc(CCOc2ccc(CC3SC(=O)NC3=O)cc2)nc1 (stereo not shown) [Pioglitazone, pioglitazone] | – | 0.98 | – | – | – | 0.88 | – | – | –
3 | CN(CCOc1ccc(CC2SC(=O)NC2=O)cc1)c1ccccn1 (stereo not shown) [Rosiglitazone, rosiglitazone] | – | – | – | – | – | – | 1.08 | 1.27 | 1776
